Nrf2 ARE act: activates Nrf2 signaling. 0.31% of 410,000 active. AID 624171. Potency, µM (doses to about 46.1 µM), inactives show at the highest dose activation, actives largely listed as activators. AREc32 ARE-luciferase reporter (MCF7-derived line), luminescence, 24 h; note: potency is the fitted concentration of half-maximal effect; % of control where 0% means no effect; nearly all actives have a fitted effect of over 65% in size
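Luciferase luminescence (Steady-Glo, 30 min at room temperature) served as the read-out of ARE activation in AREc32 cells treated with compounds for 24 hr at 37 deg C.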
miR-21 reporter: raises the signal of a miR-21 reporter. Potency, µM (highest dose often 38.3 µM), without a hit: top-dose reporter change, positive = more light. 340,000 tested, under 10 active. HeLa miR-21 FLuc reporter, luciferase, 48 h; active = well fitted rising curve with a large enough effect; inconclusive = small, poorly fitted or top-dose-only effect; inactive = no such curve, though single readings can be large or run the other way;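 further: % of control where 0% means no effect; miR-21 action dims this reporter so a rising signal means less miR-21 action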
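HeLa miR-21-FLuc reporter line, endogenous miR-21; 2000 cells/well in DMEM/10% FBS; compound titration up to ~40uM final, 48 h, 37 degree Celsius; luciferase detection reagent, 15 min lysis, CCD luminescence.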
Mito fusion act: blocks mitochondrial division or promotes mitochondrial fusion. Potency, µM (highest dose often 46.1 µM), without a hit: at the highest dose growth rescue (activation), actives largely listed as activators. S. cerevisiae fusion-defective mutant growth rescue, CellTiterGlo 48 h. 0.23% of 320,000 active; note: potency is the fitted concentration of half-maximal effect; % of control where 0% means no effect; nearly all actives have a fitted effect of over 45% in size
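S. cerevisiae fusion-defective temperature-sensitive mutants (e.g. fzo1-1, mgm1-5) grown 48 h at 37C in YPEG (ethanol/glycerol non-fermentable) medium with 23 nl compound per well; growth rescue read as CellTiterGlo luminescence.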
A549 viability: counter-screen for Nrf2 inhibitors: cytotoxicity in A549 cells; A549 ARE-Fluc cells, CellTiter-Fluor viability, 18-24 h; 0.16% of 390,000 active; AID 504648; Potency, µM (top dose mostly 46 µM), for inactives: at the highest dose activity change, negative = cytotoxicity, actives largely listed as inhibitors; note: potency is the fitted concentration of half-maximal effect; % is set by controls: 0 for no effect and ±100 for the full control effect
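Cytotoxicity counterscreen: CellTiter-Fluor fluorescence was measured in A549 ARE_Fluc cells after 18-24 h of compound exposure in a concentration series. The subsequent BugLite luminescent read reports ARE-luciferase activity.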
Nrf2 inh: inhibitors of Nrf2 signaling | A549 ARE-Fluc reporter, luciferase luminescence, 18-24 h | Potency, µM (highest dose often 46 µM), for the others: top-dose activity change, negative = inhibition, usual class: inhibitors | 2.1% of 360,000 active | AID 504444; note: potency is the fitted concentration of half-maximal effect; % is set by controls: 0 for no effect and ±100 for the full control effect; nearly all actives have a fitted effect of over 60% in size
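Quantitative HTS in A549 cells stably bearing an antioxidant response element-firefly luciferase construct. Inhibition of Nrf2-driven transcription was scored by luminescence after 18-24 h of compound exposure at 37 °C.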
* marks the source's active call; other numbers are inactive results; u = inconclusive; x = no result given; ! = not confirmed by another sample; [ ] = dose if it differs, or a comment. An excerpt weighted towards active compounds, which were near 2.3% of everything screened. Unless noted, calls come from the whole dose curve; as a rule, active = well fitted curve in the direction sought with a large enough effect; inconclusive = small, poorly fitted or top-dose-only effect, or another doubt; inactive = no such curve, though single readings can be large; an effect the other way counts as inactive or inconclusive.

SMILES	Nrf2 ARE act	miR-21 reporter	Mito fusion act	A549 viability	Nrf2 inh
CCCOC(=O)c1cccc(NC(=O)CSc2nnc3cc(C)c4ccccc4n23)c1	0.5%	-5.9%	x	-1.6%	u
CCN(C(=O)CSc1nc(-c2ccc(C(C)C)cc2)no1)c1ccccc1	5.4%	12.6%	x	-8.9%	-17.4%
CC1=C(C(=O)Nc2ccccc2)C(c2ccccc2)n2nc(-c3ccco3)nc2N1 (stereo not drawn)	0.2%	-17.3%	x	-4.2%	0.7%
COc1ccc(NC(=O)C(OC(=O)CNC(=O)c2ccccc2)c2ccccc2)c(C)c1 (stereo not drawn)	x	x	x	-1.4%	26.1%
Cc1ccc(NS(=O)(=O)c2ccc(C(=O)N3CCN(S(=O)(=O)c4ccccc4)CC3)cc2)cc1	1.1%	x	-1.6%	-24.6%	20.6µM*
Cc1ccc(S(=O)(=O)N2CCN(C(=O)CNC(=O)c3ccc(Cl)cc3)CC2)cc1	0.6%	x	x	0.1%	20.6µM*
Cc1ccc(S(=O)(=O)Nc2ccc(C(=O)N3CCCC3)cc2)cc1	0.4%	-10.3%	-2.1%	-1.2%	0.5%
CC(C)CNS(=O)(=O)c1ccc(CCC(=O)N2CCN(c3ccccc3)CC2)cc1	2.0%	20.6%	-2.9%	u	10.3µM*
O=C(c1ccc(CNS(=O)(=O)c2ccccc2)cc1)N1CCN(Cc2ccccc2)CC1	0.3%	20.1%	0.2%	-14.7%	13µM*
Cn1c(=O)cc(SCC(=O)N2CCN(c3ccccc3F)CC2)c2ccc(Cl)cc21	0.6%	0.1%	x	-1.1%	u
Cc1ccc(C(=O)NCc2ccc(N3CCN(C(=O)OC(C)(C)C)CC3)cc2)cc1	0.5%	-1.4%	-0.2%	-2.9%	-16.1%
Cc1ccc(S(=O)(=O)NCc2ccc(N3CCN(C(=O)OC(C)(C)C)CC3)cc2)cc1	0.3%	-3.1%	-0.3%	-10.3%	25.9µM*
COC(=O)/C=C1/S/C(=N/N=C/c2ccco2)NC1=O	10µM*	-4.5%	-2.9%	-19.8%	-5.0%
COC(=O)/C=C1\S/C(=N/N=C/c2ccco2)NC1=O	u	1.4%	13.8%	-3.5%	u
Fc1cccc2sc(Nc3nc4cc5c(cc4s3)OCCO5)nc12	u	-60.4%	11.2µM*	13.5%	u
Fc1cccc2sc(Nc3nc4cc5c(cc4s3)OCO5)nc12	u	-66.6%	u	16.0%	u
Cc1ccc(SCCNC(=O)c2ccc(C)c(S(=O)(=O)Nc3cccc(C)c3)c2)cc1	2.7%	19.0%	10.1%	u	u
Cc1ccc(C(=O)NCCSc2ccc(Cl)cc2)cc1S(=O)(=O)Nc1ccccc1	2.8%	21.9%	-4.6%	u	14.6µM*
Cc1ccc(NS(=O)(=O)c2cc(C(=O)NCCSc3ccc(C)cc3)ccc2C)cc1	0.4%	21.0%	15.1%	-21.6%	23.1µM*
CS(=O)(=O)Nc1ccccc1C(=O)NCCSc1ccc(Cl)cc1	0.0%	8.8%	-0.9%	-0.2%	-18.1%
COc1ccc(C2Nc3ccccc3C(=O)N2Cc2ccccc2C)cc1COc1ccc(NC(C)=O)cc1 (stereo not drawn)	x	x	x	-8.7%	u
CC(C)C[C@@H](COCc1ccc(Cl)cc1)N1CCN(C(=O)c2ccc(C(F)(F)F)cc2)CCC1=O	-0.6%	x	x	x	x
CC(C)CC(COCc1ccc(Cl)cc1)N1CCN(C(=O)c2ccc(Cl)cc2Cl)CCC1=O (stereo not drawn)	-0.8%	18.2%	15.2%	u	20.6µM*
Cc1cccc(COCC(Cc2ccccc2)N2CCN(C(=O)c3cccc(Cl)c3)CCC2=O)c1 (stereo not drawn)	5.4%	-1.1%	23.7%	u	20.6µM*

Individual results from the list.
Cc1ccc(S(=O)(=O)Nc2ccc(C(=O)N3CCCC3)cc2)cc1 | Mito fusion act: -2.1%
Cc1ccc(C(=O)NCc2ccc(N3CCN(C(=O)OC(C)(C)C)CC3)cc2)cc1 | A549 viability: -2.9%
CC(C)C[C@@H](COCc1ccc(Cl)cc1)N1CCN(C(=O)c2ccc(C(F)(F)F)cc2)CCC1=O | Nrf2 ARE act: -0.6%

Sorted by number of heavy atoms (highest first): some entries from above
SMILES	Nrf2 ARE act	miR-21 reporter	Mito fusion act	A549 viability	Nrf2 inh
CC(C)C[C@@H](COCc1ccc(Cl)cc1)N1CCN(C(=O)c2ccc(C(F)(F)F)cc2)CCC1=O	-0.6%	x	x	x	x
Cc1ccc(C(=O)NCCSc2ccc(Cl)cc2)cc1S(=O)(=O)Nc1ccccc1	2.8%	21.9%	-4.6%	u	14.6µM*
Fc1cccc2sc(Nc3nc4cc5c(cc4s3)OCCO5)nc12	u	-60.4%	11.2µM*	13.5%	u

Next compounds.
SMILES	Nrf2 ARE act	miR-21 reporter	Mito fusion act	A549 viability	Nrf2 inh
CCCOc1ccc(C(=O)Nc2nc(C)c(Cc3ccc4c(c3)OCO4)s2)cc1	-2.3%	-31.3%	-5.6%	-24.6%	u
COc1cc(C(=O)Nc2nc(C)c(Cc3ccc4c(c3)OCO4)s2)cc(OC)c1OC	4.3%	24.8%	u	-0.3%	14.6µM*
CN(C)c1ccc(/C=C2\C(=O)Nc3ccccc32)cc1	x	x	13µM*	x	x
Cc1nn(Cc2ccc(C(=O)NC(C)(C)C)o2)c(C)c1Br	0.6%	12.8%	-2.3%	-16.1%	18.4µM*
COc1cc(OC)c(OC)cc1/C=C/c1cc(C(=O)O)c2ccccc2n1	-0.5%	5.0%	-11.3%	-9.0%	-23.5%
COc1ccc(/C=C/c2cc(C(=O)O)c3ccccc3n2)cc1	-2.0%	u	-8.4%	-0.5%	6.51µM*
O=C(Nc1cc2ccc(O)cc2oc1=O)c1ccccc1	9.1%	-34.3%	x	-3.4%	x
O=[N+]([O-])c1ccc(N2CCN(C(=S)NCc3ccc(Cl)cc3)CC2)cc1	-0.3%	6.5%	-19.7%	u	16.4µM*
O=[N+]([O-])c1ccc(C(=S)N2CCN(c3ccc(F)cc3)CC2)cc1	3.1%	1.1%	20.9%	-1.1%	18.4µM*
COc1ccc(CN(C2CC2)S(=O)(=O)c2ccccc2Br)cc1	0.0%	x	x	-1.0%	16.4µM*
Clc1ccc(CNc2ncnc3[nH]ncc23)cc1Cl	0.2%	x	x	-8.2%	u
Clc1ccc(CNc2ncnc3[nH]ncc23)c(Cl)c1	0.4%	x	x	-13.8%	23.1µM*

One compound at a time (already shown):
Listed for `CN(C)c1ccc(/C=C2\C(=O)Nc3ccccc32)cc1` : Nrf2 ARE act: x; miR-21 reporter: x; Mito fusion act: 13µM*; A549 viability: x; Nrf2 inh: x
Listed for `O=[N+]([O-])c1ccc(C(=S)N2CCN(c3ccc(F)cc3)CC2)cc1` : Nrf2 ARE act: 3.1%; miR-21 reporter: 1.1%; Mito fusion act: 20.9%; A549 viability: -1.1%; Nrf2 inh: 18.4µM*

(further entries)
SMILES	Nrf2 ARE act	miR-21 reporter	Mito fusion act	A549 viability	Nrf2 inh
CN(C)c1ccc(-c2cc[nH]c(=O)c2N)cc1	x	x	x	-10.4%	15.4%
COc1cccc(C(=O)N/N=C/C(Br)=C/c2ccccc2)c1	u	8.1%	-1.1%	-2.4%	11.9%
Cc1occc1C(=O)N/N=C/C(Br)=C/c1ccccc1	15.8µM*	-8.2%	3.5%	-15.8%	u
Cc1ccc(-c2cc(C(=O)N/N=C/C(Br)=C/c3ccccc3)n[nH]2)o1	20µM*	19.7%	1.0%	-1.2%	u
Cc1occc1C(=O)N/N=C/c1ccc(-c2ccccc2)cc1	-1.2%	-17.2%	-28.2%	0.9%	u
COc1ccc(C(=O)N/N=C/C(Br)=C/c2ccccc2)cc1	15.8µM*	-11.7%	-0.6%	-3.6%	-12.8%
Cc1ccc(-c2cc(C(=O)N/N=C/C=C/c3ccccc3)n[nH]2)s1	2.5%	-7.3%	15.8µM*	0.4%	-17.3%
O=C(N/N=C/C(Br)=C\c1ccccc1)c1n[nH]c2c1CCC2	14.1µM*	-18.2%	-10.8%	-8.6%[1.84 µM]	u
CCOc1ccccc1-c1nnc2n1N=C(c1ccc(OC)cc1)CS2	x	x	x	-5.7%	u
O=C(O)CCC(=O)N1CCN(c2nc(-c3ccccc3)c3ccccc3n2)CC1	0.2%	-9.1%	-10.4%	-9.9%	u
Clc1ccc(-c2nc(N3CCCCC3)nc3ccccc23)cc1	0.6%	-9.0%	35.5µM*	9.8%	8.9%
Nc1nnc(-c2cccc(Cl)c2Cl)c(N)n1	0.6%	-6.2%	20.6µM*!	-6.5%	u
CCc1c(N)nc(N)nc1Nc1ccccc1Cl	0.3%	x	x	-2.6%	u
O=C(Nc1cccc(OCC(=O)N2CCOCC2)c1)c1cccc([N+](=O)[O-])c1	0.0%	7.1%	-1.6%	-3.0%	-13.9%
O=C(COc1cccc(NC(=O)c2ccccc2)c1)c1ccccc1	0.1%	-6.6%	-3.6%	-14.7%	20.6µM*
